The numbers were not newly measured in patent US4897502A, “Process for making solid polyhalotriaryl phosphate esters” (priority 1987, dated 1990), which cites them from elsewhere.

The conditions of the data set: Table I.

Consider amyl alcohol [amyl alcohol (pract.)], for which the “Hildebrand Solubility Parameter” value is given as 22.0 SI.
